The record followed here is PubChem BioAssay AID1452 (National Center for Advancing Translational Sciences (NCATS), 2008).

Chains of the proteins cited; added tags and fusions are not shown.
UniProt P18054, whole entry: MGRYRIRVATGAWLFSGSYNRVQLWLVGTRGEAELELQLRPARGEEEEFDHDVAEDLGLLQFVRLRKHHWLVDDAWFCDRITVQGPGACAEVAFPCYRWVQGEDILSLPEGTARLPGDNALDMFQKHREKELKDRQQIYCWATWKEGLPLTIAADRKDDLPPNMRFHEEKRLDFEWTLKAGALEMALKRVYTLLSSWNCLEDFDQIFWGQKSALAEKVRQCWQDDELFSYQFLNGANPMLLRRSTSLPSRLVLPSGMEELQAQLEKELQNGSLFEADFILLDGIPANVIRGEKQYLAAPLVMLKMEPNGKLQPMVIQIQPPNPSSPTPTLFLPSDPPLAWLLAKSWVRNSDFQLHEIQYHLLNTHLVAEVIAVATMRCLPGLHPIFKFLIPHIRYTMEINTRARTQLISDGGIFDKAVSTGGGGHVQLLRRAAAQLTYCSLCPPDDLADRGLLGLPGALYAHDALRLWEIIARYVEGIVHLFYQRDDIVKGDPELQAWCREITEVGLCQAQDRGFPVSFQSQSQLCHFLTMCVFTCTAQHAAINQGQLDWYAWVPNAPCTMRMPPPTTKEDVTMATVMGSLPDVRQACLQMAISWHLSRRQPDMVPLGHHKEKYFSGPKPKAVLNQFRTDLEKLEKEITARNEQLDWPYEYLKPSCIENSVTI

The list shows a part of the results, in another mix than the full data. Activity calls are given as the source filed them. Calls follow the shape of the dose curve; as a rule, active = well fitted inhibition curve with a large enough effect; inconclusive = small, poorly fitted or top-dose-only effect; inactive = flat fitted curve, though single readings scatter.
% is scaled to controls: 0 for no effect and ±100 for the full control effect.

The target of this experiment is Polyunsaturated fatty acid lipoxygenase ALOX12 (Homo sapiens) (UniProt P18054). Nature of the experiment: qHTS Assay for Inhibitors of 12-hLO (12-human lipoxygenase). Also: nearly all actives have a fitted effect of over 55% in size. The following applies: purified 12-hLO, xylenol orange hydroperoxide absorbance; at 57.1 µM (top of the series). An excerpt: Assay Provider: Holman, T.R., University of California, Santa Cruz Screening Center PI: Austin, C.P. Screening Center: NIH Chemical Genomics Center [NCGC] Human lipoxygenase 12hLO is a member of the closely related lipoxygenase family of enzymes which catalyze the site-specific oxidation of arachidonic acid to various hormone precursor molecules and as such is a candidate for drug development in a variety of disease areas, such as cancer and inflammation. Inhibition of 12hLO activity was screened by utilizing arachidonic acid as a substrate. The extent of hydroperoxide product formation was measured by a secondary chromogenic reaction in which xylenol orange (XO, Sigma-Aldrich, cat. number 39,818-7) reacts with the ferric ions produced from the reaction between the hydroperoxide and ferrous ions. The Fe(III)-XO complex is characterized with red-shifted absorbance at 560 nm. A purified preparation of human 12hLO was supplied by Professor Ted Holman, University of California, Santa Cruz.
Assay Protocol: Buffer: 25 mM Hepes pH 7.0, 0.01% Triton X-100. Reagents/Controls: Buffer in columns 3 and 4 as negative control (no enzyme). […] The absorbance at 405 and 573 nm were measured using ViewLux (Perkin-Elmer) High-throughput CCD imager and absorbance protocol settings. The 573-to-405 absorbance ratio was used to compute reaction progress.
In general terms: Quantitative high-throughput screening tests each substance at several concentrations.
In the case of `CN(CCCl)CCCl`, the activity change, negative = inhibition is inactive: -3.42%.
The value for `O=[N+]([O-])C(Cl)(Cl)Cl` was inactive: 0.755%.
